Chains of the proteins cited; added tags and fusions are not shown.
UniProt P31652, whole entry: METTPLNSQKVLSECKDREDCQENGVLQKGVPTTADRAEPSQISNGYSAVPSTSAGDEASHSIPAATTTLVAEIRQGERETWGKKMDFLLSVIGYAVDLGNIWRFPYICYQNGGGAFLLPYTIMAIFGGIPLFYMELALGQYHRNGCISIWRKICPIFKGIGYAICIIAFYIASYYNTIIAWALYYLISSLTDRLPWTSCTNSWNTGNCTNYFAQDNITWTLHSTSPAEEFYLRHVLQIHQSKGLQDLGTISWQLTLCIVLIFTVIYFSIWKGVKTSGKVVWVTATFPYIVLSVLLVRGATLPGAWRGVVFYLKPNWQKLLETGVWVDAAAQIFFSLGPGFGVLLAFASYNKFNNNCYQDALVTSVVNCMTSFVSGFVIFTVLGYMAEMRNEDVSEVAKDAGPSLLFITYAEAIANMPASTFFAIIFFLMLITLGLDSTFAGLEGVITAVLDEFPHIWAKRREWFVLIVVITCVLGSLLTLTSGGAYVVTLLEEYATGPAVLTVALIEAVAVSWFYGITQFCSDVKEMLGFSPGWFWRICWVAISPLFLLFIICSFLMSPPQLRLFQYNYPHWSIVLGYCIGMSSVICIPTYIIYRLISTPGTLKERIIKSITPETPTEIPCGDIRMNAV
UniProt P30547, whole entry: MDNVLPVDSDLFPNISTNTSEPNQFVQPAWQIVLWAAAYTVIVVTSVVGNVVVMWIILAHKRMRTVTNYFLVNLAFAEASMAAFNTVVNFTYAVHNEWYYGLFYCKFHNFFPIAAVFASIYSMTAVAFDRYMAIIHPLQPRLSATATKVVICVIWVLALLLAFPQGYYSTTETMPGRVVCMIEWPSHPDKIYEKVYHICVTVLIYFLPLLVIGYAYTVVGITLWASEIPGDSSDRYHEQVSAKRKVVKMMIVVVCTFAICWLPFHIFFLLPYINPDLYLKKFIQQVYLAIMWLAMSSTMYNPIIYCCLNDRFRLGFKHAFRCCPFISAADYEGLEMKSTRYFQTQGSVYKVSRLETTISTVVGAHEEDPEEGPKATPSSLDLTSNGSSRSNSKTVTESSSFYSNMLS
UniProt P25103, whole entry: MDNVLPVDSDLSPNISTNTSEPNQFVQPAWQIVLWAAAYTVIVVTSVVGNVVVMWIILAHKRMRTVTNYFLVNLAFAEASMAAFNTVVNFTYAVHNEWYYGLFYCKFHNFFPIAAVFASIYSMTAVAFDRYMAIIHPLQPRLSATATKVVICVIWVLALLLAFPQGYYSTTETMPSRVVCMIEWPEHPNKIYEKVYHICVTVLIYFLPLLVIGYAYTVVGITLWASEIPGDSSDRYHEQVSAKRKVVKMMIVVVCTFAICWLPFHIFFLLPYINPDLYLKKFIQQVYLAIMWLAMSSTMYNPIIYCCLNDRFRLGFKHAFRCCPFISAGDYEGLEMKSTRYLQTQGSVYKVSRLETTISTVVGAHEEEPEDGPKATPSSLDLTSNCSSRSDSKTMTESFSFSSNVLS

In ChEMBL document CHEMBL1135382, “First dual NK(1) antagonists-serotonin reuptake inhibitors: synthesis and SAR of a new class of potential antidepressants” (Bioorg Med Chem Lett, 2002):

What was measured:
[1] = target: Sodium-dependent serotonin transporter (Rattus norvegicus, UniProt P31652); experiment: Binding affinity at serotonin transporter from rat cerebral cortex by [3H]-paroxetine displacement.; format: tissue-based
Summary of the method: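 Rat cerebral cortex membranes (100–200 μg protein) were incubated 120 min at 25 °C in 50 mM Tris–HCl pH 7.4 with 2 mM MgCl2 and 0.05 nM radioligand. Nonspecific binding was defined with 5 μM imipramine.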

[2] = Lipophilicity; format: physicochemical
Substance-P receptor [3] = target: Substance-P receptor (Cavia porcellus, UniProt P30547); experiment: inhibiting substance P-induced contraction of the isolated guinea pig ileum
Substance-P receptor [4] = target: Substance-P receptor (Homo sapiens, UniProt P25103); experiment: Binding affinity at human Tachykinin receptor 1 expressed in CHO cells by [3H]-substance P displacement.; format: cell-based
Summary of the method: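 Membranes (10–20 μg protein) from CHO cells expressing human NK1 receptor were incubated 60 min at 25 °C in 50 mM Tris–HCl pH 7.4 with 2 mM MgCl2, 100 μg/mL bacitracin and 0.25 nM [3H]substance P.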

## Cc1cc(C)cc(OCC(=O)N(c2ccc(Cl)c(Cl)c2)C2CCNCC2)c1
[1]
  Log IC50: -7.5
[2]
  Log K' IAM: 2.7
Substance-P receptor [3]
  pA2: 6.88
Substance-P receptor [4]
  Log IC50: -7.6

## O=C(COc1cc(F)cc(F)c1)N(c1ccc(Cl)c(Cl)c1)C1CCNCC1
[1]
  Log IC50: -7.6
[2]
  Log K' IAM: 2.5
Substance-P receptor [4]
  Log IC50: -5.9

## O=C(COc1cc(Cl)cc(Cl)c1)N(c1ccc(Cl)c(Cl)c1)C1CCNCC1
[1]
  Log IC50: -7.5
[2]
  Log K' IAM: 3.2
Substance-P receptor [4]
  Log IC50: -7

This is a selection: effects in other tests are not listed, and their absence says nothing.
